Measurements: patent publication US7964104B2, “Active antiseptic water or active water-based fluid, and production method and apparatus for the same” (Japan Techno Co., Ltd., priority 2003, dated 2011)

Tested on: goldfish
Conditions: level of nitrite and sulfite ions in the water

What does the source list for nitrite and sulfite ions?
Level at which a danger is posed to goldfish and the like: greater than 0.5 mg/L; Level at which goldfish die: 800 ng/mL
